# Results as given in ChEMBL document CHEMBL1156016, “Discovery of potent and selective histone deacetylase inhibitors via focused combinatorial libraries of cyclic alpha3beta-tetrapeptides” (J Med Chem, 2009).
# What was measured:
# Histone deacetylase [1] = assay type: cell-based, Homo sapiens; settings: hela
# Histone deacetylase 1 = Histone deacetylase 1 (Homo sapiens, UniProt Q13547)
# Histone deacetylase 3 = Histone deacetylase 3 (Homo sapiens, UniProt O15379)
# [2] = molecular target: T1, Protein deacetylase HDAC6 (Homo sapiens, UniProt Q9UBN7)
# T1 sequence (Q9UBN7 whole entry): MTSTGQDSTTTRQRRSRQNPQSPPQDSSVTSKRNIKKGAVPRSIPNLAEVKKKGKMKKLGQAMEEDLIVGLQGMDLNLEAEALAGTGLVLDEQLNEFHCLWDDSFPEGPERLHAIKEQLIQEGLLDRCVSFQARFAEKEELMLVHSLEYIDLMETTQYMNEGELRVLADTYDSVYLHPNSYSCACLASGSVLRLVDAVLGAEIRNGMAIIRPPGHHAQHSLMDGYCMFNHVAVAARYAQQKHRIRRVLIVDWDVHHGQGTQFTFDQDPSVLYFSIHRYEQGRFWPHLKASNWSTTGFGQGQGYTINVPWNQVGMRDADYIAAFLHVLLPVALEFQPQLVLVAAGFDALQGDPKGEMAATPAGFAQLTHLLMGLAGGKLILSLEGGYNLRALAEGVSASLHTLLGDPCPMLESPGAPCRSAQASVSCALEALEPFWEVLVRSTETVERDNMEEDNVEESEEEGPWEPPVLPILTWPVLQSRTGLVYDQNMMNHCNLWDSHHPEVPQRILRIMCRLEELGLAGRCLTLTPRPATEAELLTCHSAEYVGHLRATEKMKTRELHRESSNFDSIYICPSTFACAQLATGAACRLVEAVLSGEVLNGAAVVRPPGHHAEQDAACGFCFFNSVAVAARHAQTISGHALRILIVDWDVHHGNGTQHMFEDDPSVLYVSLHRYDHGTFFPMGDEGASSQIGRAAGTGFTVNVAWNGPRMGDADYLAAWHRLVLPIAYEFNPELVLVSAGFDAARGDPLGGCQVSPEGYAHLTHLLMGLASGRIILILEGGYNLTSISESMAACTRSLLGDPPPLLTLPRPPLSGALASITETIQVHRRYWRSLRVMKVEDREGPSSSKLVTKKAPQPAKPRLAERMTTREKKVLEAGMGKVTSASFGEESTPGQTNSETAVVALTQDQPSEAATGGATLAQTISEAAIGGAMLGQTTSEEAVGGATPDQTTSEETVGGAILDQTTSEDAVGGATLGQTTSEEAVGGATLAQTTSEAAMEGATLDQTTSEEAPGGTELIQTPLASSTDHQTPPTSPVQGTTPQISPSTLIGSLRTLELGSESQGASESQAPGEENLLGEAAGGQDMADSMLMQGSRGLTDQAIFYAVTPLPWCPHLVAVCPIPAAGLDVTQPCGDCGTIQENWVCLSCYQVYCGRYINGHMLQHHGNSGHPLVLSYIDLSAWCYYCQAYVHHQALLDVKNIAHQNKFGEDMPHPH
# Histone deacetylase [3] = assay type: cell-based, Homo sapiens; settings: hela; remark: listed apart in the source
SMILES,IC50 (Histone deacetylase [1]) [nM],IC50 (Histone deacetylase 1) [nM],IC50 (Histone deacetylase 3) [nM],IC50 [2] [nM],IC50 (Histone deacetylase [3]) [nM]
CC(C)C[C@H]1CC(=O)NC(C)(C)C(=O)N[C@@H](CCCCCC(=O)O)C(=O)N[C@@H](Cc2cccc3ccccc23)C(=O)N1,500,136,970,7000,–
CC(C)C[C@H]1CC(=O)N[C@@H](C)C(=O)N[C@@H](CCCCCC(=O)O)C(=O)N[C@@H](Cc2c[nH]c3ccccc23)C(=O)N1,324,–,–,–,630
